A word on the IC50: it is the concentration at which inhibition is half-maximal.

Amino acid sequences for entries named in this document (tags omitted).
UniProt P34972, whole entry: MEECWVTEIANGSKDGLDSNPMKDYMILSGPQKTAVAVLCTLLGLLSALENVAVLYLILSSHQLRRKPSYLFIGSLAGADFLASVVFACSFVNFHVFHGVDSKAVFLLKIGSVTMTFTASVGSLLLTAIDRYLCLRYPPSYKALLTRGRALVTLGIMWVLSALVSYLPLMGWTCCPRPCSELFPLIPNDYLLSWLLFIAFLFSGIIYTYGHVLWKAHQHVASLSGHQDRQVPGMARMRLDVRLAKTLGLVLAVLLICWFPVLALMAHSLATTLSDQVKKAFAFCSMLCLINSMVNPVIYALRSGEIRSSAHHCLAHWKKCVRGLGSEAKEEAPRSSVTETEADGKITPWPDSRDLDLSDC

This passage reports IC50 results from US20080312435A1, “Imine Compound” (TAISHO PHARMACEUTICAL CO., LTD., priority 2004, published 2008).

The assay has as its target human CB2 receptor (Homo sapiens, UniProt P34972). Nature of the assay: Human CB2 receptor binding inhibition test ([3H]CP-55,940, CHO membrane fractions). To be noted: read-out: CB2 IC50 (Inhibition of binding to human CB2 receptor); [3H]CP-55,940, membrane fractions of CHO cells stably expressing human CB2 receptor, 25° C., 2 hours.
Regarding `Cc1c(C(C)(C)C)sc(=NC(=O)c2cccc(Br)c2)n1CC1CC1`, the half-maximal inhibitory concentration (IC50) stood at 1 nM. With `CCn1c(C)c(C(C)(C)C)sc1=NC(=O)c1cc(F)ccc1OC` the figure was 7.2 nM; with `Cc1cc(C)n(CC2CC2)c(=NC(=O)c2cccc(C(F)(F)F)c2F)c1`, 16.5 nM.
